Values of other authors as cited in PMC6175296 (Clinical Pharmacology and Therapeutics, 2017).

System: UGT1A3
Conditions: up; depending on UGT1A3 genotype; cited from earlier work

In the case of CC(C)(O)c1ccccc1CC[C@@H](SCC1(CC(=O)O)CC1)c1cccc(/C=C/c2ccc3ccc(Cl)cc3n2)c1 [Montelukast], the “share of metabolism accounted for by UGT1A3” value is listed as 35–60%.
